{"source": "paper PMC5458211", "about": "“Mitochondrial VDAC1-based peptides: Attacking oncogenic properties in glioblastoma” (Oncotarget, 2017)", "molecular_target": "HK-II", "experiment": "Microscale thermophoresis (MST) binding to HK-II", "conditions": "HK-II 100 nM, peptide 1-100 μM, 20 min, PBS", "method": "Figure 2 Mode of action of VDAC1-based peptides – interacting with- and detaching HK, releasing Cyto c, decreasing ATP level and inducing apoptosis A. Purified HK-II was fluorescently labeled using the NanoTemper protein-labeling Kit BLUE. HK-II (100 nM) was incubated with Tf-D-LP4 (1- 100 μM for 20 min). Then, 3-5 μl of the samples were loaded into MST-grade glass capillaries and thermophoresis was measured using a Monolith-NT115 apparatus, as described in Materials and methods available online in Supplemental information. […] B. Tf-D-LP4 and D-ΔN-Ter-Antp induce HK-I-GFP detachment. […] For HK detachment, U-87MG cells were incubated with or without the indicated concentration of Tf-D-LP4 and D-ΔN-Ter-Antp for 3 h, treated with digitonin (0.02%) and HK in the cytosolic fraction was analyzed by immunoblotting, as described in Materials and Methods available online in Supplemental information. […] The levels of HK in the supernatants were quantified and are presented as relative units. D. D-ΔN-Ter-Antp induces mitochondrial inner membrane depolarization analyzed as described in Materials and Methods available online in Supplemental information. […] Cells then were analyzed for Δψ using TMRM. Δψ is presented as percentage of control. […] Quantification of apoptosis in control and peptide's treated cells are presented bellow the images. […]", "data": [{"smiles": "CC[C@H](C)[C@H](NC(=O)[C@H](C)NC(=O)[C@@H](N)Cc1c[nH]cn1)C(=O)N[C@@H](Cc1ccc(O)cc1)C(=O)N1CCC[C@H]1C(=O)N[C@@H](CCCNC(=N)N)C(=O)N[C@@H](Cc1c[nH]cn1)C(=O)N[C@@H](CO)C(=O)N[C@@H](Cc1c[nH]c2ccccc12)C(=O)N[C@H](C(=O)N[C@@H](Cc1c[nH]c2ccccc12)C(=O)N[C@@H](CCC(=O)O)C(=O)N[C@H](CCCCN)C(=O)N[C@H](CCCCN)C(=O)N[C@H](CC(C)C)C(=O)N[C@H](CCC(=O)O)C(=O)N[C@@H](C(=O)N[C@H](C)C(=O)N[C@@H](C(=O)N[C@H](CC(N)=O)C(=O)N[C@H](CC(C)C)C(=O)N[C@H](C)C(=O)N[C@H](Cc1c[nH]c2ccccc12)C(=O)N[C@@H](C(=O)N[C@H](C)C(=O)NCC(=O)N[C@H](CC(N)=O)C(=O)N[C@H](CO)C(=O)N[C@H](CC(N)=O)C(=O)N[C@@H](CCCCN)C(=O)N[C@@H](Cc1c[nH]c2ccccc12)C(=O)N[C@H](C(=O)N[C@@H](Cc1c[nH]c2ccccc12)C(=O)N[C@@H](CCCCN)C(=O)O)[C@@H](C)O)[C@H](C)O)C(C)C)[C@H](C)O)[C@@H](C)O", "note": "[Tf-D-LP4]", "values": [{"measurement": "Kd", "result": 16.6, "unit": "µM"}]}]}
